{
  "sequences": {"note": "Sequences of proteins named here, by UniProt entry; tags and fusion partners are left off.", "UniProt P06730, whole entry": "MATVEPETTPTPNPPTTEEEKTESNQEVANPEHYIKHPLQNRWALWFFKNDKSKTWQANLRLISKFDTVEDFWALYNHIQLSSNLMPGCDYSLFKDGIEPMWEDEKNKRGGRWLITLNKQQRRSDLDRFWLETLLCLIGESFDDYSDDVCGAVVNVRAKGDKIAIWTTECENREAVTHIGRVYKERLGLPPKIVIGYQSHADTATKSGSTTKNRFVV"},
  "source": "patent US20250346630A1",
  "about": "“Engineering Peptides Using Peptide Epitope Linker Evolution” (AGENCY FOR SCIENCE, TECHNOLOGY AND RESEARCH, priority 2022, published 2025)",
  "molecules": {"B1": {"name": "VH-DIF^CAP-01 E103A: VH-DiF^CAP-01 with point mutation E103A, binding control (antibody, V domains shown)", "VH": "MSEVQLVESGGGLVQPGGSLRLSSAISGFSISSTSIDWVRQAPGKGLEWVARISPSSGSTSYADSVKGRFTISADTSKNTVYLQMNSLRAEDTAVYYTGRPLPAMGFFTNIPAMVDYRGQGTLVTVSSGAA"}},
  "target": "T1, LgBiT-eIF4E:SmBiT-VH-DIF^CAP-01 interaction (eIF4E cap-binding site) (Homo sapiens, UniProt P06730)",
  "T1 construct": "expressed in transfected cells; host or cells: HEK293",
  "assay": "NanoBIT^CAP complementation assay in HEK293 cells",
  "format": "cell-based",
  "conditions": "live HEK293 cells",
  "data": [
    {"molecule": "B1", "values": [
      {"measurement": "luciferase signal of SmBiT-fused construct co-transfected with LgBiT-eIF4E", "value": "abrogation of the luciferase signal above background"}
    ]}
  ]
}
